Test results: US20170360949A1 (TIANJIN INSTITUTE OF INDUSTRIAL BIOTECHNOLOGY CHINESE …, published 2017)

Target: T1, GLP-1 receptor (GLP-1R) on rat insulinoma cells RINm5F (rat (rat insulinoma cells RINm5F), UniProt P32301 22-463)
T1 sequence (looked up): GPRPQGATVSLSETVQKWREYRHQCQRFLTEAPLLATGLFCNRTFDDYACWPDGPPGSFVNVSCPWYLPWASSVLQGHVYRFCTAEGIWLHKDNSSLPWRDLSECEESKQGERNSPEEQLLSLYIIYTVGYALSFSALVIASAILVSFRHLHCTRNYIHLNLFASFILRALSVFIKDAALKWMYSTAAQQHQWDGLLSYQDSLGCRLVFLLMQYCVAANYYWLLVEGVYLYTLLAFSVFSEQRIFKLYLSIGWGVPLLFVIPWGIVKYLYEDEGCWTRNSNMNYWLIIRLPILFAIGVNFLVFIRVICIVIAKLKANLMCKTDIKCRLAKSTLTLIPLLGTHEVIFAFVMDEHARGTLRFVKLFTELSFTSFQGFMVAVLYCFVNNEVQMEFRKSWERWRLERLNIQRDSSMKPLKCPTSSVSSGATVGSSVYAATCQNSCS
Assay: cell-based or functional assay

B1: Z1Z2/GLTe complex (other)
chain 1: GAMATQAPTFTQPLQSVVVLEGSTATFEAHISGFPVPEVSWFRDGQVISTSTLPGVQISFSDGRAKLTIPAVTKANSGRYSLKATNGSGQATSTAELLVKAETAPPNFVQRLQSMTVRQGSQVRLQVRVTGIPTPVVKFYRDGAEIQSSLDFQISQEGDLYSLLIAEAYPEDSGTYSVNATNSVGRATSTAELLVQG
chain 2: HAEGTFTSDVSSYLEGQAAKEFIAWLVKGRGGGGGSGGGGSGGGGSAMATSELSSEVSEENSERREAFWAEWKDLTLSTRPEEGSSLHEEDTQRHETYHQQGQSQVLVQRSPWLMMRMGILGRGLQEYQLPYQRVLP
  EC50 of cAMP production by RINm5F cells (cAMP-Glo Assay): 350 pM
